US20160033500A1

Assays:
[1] = target: human serum albumin (human) (UniProt P02768); assay: coefficient b of the two-exponential dissociation fit (Equation I), HSA sensor chip, 10 µM peptide
[2] = target: human serum albumin (human) (UniProt P02768); assay: coefficient b of the two-exponential dissociation fit (Equation I), HSA sensor chip, 2 µM peptide

b value [1] | b value [2] | Substance
0.841 |  | Amyloid β40 peptide (peptide; other documents disagree on this pair)
 | 0.09 | amyloid β42 peptide (peptide; other documents disagree on this pair)
